Only a part is listed here, and it is no random draw. Activity calls are given as the source filed them.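 The calls were made as follows: active = mean activation across triplicates above the hit threshold derived in the original primary screen (cut at about 15% in these data); inactive = the rest.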

Protein sequences, listed by entry. Tags and fused reporters are not part of them.
UniProt P35363, whole entry, looked up: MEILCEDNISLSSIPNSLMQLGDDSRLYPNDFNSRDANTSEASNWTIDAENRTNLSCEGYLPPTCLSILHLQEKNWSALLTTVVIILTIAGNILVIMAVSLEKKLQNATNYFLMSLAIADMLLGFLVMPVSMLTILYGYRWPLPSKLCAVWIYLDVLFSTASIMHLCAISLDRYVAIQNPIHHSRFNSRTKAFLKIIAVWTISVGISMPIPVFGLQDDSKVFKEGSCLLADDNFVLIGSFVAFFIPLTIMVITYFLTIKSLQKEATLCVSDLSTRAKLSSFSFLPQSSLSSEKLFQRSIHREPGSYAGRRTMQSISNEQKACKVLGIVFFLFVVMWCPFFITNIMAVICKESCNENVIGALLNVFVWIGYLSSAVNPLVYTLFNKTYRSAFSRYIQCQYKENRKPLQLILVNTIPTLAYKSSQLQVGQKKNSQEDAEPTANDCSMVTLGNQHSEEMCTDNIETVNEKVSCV

The target of this assay is 5-hydroxytryptamine receptor 2A (Mus musculus) (UniProt P35363). The assay can be described thus: mouse HTR2A agonists, beta-arrestin recruitment, confirmation, cell-based, luminescence, CHO-K1 PathHunter, triplicate (AID 624381). As to conditions: at 7.6 µM, hits give high values, DMSO 0%, 30 µM serotonin 100%. In general terms: Arrestin recruitment assays detect the binding of arrestin to an activated receptor.
As for `COc1ccc(N)c([N+](=O)[O-])c1[N+](=O)[O-]`, the activation is inactive: -6.67%.

These data come from PubChem BioAssay AID624381 (The Scripps Research Institute Molecular Screening Center, 2012).
